Drawing on US9212130B2, “Heterocyclic derivative and pharmaceutical composition comprising the same” (SHIONOGI & CO., LTD., priority 2010, dated 2015), this text covers IC50 for one molecule.

Amino acid sequences for entries named in this document (tags omitted).
UniProt P56373, whole entry: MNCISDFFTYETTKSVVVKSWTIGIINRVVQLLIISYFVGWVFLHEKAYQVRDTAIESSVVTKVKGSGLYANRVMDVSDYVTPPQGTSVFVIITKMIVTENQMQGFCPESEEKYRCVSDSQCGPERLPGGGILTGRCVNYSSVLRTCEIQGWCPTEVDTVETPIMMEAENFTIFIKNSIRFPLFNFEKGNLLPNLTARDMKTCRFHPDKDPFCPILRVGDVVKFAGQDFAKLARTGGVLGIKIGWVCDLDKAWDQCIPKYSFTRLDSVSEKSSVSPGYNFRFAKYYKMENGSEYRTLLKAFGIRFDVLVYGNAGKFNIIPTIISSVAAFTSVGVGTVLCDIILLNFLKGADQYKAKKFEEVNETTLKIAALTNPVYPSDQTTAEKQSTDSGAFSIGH

The target in this test is human P2X3 receptor (Homo sapiens (Human), UniProt P56373). Nature of the test: Evaluation of human P2X3 receptor inhibitory activity (ATP-induced Fluo-3 fluorescence, FDSS 3000). The conditions noted are these: read-out: P2X3 IC50; C6BU-1 cell transfected with human P2X3 receptor gene. It is filed as cell-based.

Usually IC50 stands for the point on the concentration scale where inhibition reaches its midpoint. With `CC(C)Oc1ccc(Nc2sc(Oc3ccccc3)nc2Cc2ccc(Cl)cc2)cc1F`, the IC50 turned out to be 0.402 µM.
